Data taken from patent publication US8343539.

Amino acid sequences for entries named in this document (tags omitted). Residues count along the entry.
UniProt P06756, 31-1048, chain 1 of 2: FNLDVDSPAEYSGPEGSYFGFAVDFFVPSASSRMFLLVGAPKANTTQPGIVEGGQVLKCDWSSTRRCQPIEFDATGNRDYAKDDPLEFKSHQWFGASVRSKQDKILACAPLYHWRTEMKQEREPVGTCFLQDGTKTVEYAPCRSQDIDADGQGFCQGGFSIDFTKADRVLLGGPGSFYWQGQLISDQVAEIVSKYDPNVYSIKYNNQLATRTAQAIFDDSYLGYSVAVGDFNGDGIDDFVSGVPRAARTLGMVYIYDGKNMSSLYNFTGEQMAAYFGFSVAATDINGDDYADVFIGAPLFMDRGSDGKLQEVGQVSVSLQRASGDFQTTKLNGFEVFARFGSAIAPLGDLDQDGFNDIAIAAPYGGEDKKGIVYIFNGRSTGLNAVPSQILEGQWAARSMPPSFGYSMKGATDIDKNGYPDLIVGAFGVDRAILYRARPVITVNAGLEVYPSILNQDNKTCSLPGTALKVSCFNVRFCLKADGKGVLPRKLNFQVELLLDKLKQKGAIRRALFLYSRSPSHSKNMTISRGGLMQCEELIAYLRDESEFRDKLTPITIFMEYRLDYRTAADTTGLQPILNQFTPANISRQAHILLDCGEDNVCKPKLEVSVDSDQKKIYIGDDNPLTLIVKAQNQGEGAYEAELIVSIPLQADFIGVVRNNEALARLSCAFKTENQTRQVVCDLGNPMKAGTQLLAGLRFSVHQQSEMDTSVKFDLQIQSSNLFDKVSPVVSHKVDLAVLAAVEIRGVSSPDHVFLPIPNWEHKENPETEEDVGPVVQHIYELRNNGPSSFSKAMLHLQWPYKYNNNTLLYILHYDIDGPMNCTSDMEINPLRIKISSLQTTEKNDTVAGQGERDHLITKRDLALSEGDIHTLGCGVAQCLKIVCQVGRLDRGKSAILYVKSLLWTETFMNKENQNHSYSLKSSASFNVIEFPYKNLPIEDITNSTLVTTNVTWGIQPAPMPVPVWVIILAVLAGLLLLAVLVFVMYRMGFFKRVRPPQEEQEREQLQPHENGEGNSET
Human fibronectin (fibronectin-coated coverslips, BD Biosciences), UniProt P02751, 32-2477 limits assumed: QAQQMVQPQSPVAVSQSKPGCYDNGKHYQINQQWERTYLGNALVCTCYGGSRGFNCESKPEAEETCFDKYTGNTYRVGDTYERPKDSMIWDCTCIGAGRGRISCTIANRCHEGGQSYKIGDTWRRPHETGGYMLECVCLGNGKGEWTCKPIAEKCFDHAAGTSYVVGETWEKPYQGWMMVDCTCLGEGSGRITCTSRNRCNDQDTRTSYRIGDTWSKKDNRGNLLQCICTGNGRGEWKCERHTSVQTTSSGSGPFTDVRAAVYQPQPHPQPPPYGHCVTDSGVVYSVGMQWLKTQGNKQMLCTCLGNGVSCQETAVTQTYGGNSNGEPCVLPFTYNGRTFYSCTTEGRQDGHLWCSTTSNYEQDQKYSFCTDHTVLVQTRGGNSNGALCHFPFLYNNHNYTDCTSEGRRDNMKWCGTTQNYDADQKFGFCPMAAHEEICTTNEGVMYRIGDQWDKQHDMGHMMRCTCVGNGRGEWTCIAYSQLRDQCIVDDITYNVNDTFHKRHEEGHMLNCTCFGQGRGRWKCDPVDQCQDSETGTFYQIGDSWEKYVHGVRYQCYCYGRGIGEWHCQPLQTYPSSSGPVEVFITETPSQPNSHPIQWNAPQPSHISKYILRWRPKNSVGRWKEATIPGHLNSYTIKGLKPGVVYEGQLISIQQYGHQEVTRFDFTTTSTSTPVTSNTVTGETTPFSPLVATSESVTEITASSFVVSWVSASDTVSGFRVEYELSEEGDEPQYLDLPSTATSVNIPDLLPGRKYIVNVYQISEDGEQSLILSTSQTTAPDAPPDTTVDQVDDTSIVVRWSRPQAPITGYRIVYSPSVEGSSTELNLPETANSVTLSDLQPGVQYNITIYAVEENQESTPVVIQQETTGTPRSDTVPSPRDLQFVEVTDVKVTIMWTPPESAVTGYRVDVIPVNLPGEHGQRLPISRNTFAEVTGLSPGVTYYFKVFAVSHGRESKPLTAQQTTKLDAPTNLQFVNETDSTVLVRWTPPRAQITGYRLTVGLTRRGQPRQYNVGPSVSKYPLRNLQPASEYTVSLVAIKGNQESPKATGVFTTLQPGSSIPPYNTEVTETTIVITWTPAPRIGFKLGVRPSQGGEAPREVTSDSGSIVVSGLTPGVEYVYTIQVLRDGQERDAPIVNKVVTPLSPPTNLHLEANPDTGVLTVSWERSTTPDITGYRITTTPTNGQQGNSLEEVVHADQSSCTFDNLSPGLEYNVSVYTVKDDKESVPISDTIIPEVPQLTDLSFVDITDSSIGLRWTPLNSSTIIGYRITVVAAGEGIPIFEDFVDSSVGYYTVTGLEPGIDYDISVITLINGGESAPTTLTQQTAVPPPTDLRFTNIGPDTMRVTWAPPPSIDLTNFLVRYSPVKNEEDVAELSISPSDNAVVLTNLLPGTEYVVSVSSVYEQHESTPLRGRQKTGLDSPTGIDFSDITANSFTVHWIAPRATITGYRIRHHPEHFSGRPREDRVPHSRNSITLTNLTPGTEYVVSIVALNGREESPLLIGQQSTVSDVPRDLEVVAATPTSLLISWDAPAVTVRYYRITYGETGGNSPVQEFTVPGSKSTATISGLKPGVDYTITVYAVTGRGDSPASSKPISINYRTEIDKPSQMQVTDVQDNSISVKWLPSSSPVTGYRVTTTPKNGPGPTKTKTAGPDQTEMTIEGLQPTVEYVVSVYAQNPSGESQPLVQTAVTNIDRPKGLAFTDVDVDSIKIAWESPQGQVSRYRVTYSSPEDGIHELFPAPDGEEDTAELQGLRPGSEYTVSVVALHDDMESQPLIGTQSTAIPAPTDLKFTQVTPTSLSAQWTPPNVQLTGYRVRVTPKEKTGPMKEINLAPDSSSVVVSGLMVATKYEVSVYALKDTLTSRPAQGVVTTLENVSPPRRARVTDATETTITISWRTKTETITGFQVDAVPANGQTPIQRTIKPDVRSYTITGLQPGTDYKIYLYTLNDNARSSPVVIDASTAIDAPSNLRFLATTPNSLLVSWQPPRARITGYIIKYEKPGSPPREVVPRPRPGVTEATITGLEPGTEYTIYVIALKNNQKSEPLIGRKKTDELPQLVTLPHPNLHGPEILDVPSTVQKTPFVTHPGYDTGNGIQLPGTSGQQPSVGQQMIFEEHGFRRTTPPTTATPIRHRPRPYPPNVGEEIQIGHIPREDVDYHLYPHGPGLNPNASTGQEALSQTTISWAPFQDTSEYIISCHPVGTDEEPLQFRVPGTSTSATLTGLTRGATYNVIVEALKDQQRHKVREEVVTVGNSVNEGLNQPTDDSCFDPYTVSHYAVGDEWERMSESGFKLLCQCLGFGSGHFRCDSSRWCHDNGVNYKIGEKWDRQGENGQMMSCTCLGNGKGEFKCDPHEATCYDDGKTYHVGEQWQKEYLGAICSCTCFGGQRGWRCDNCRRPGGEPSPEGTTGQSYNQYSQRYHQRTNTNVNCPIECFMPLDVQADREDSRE

How the values were obtained:
[1] = target: human αvβ3 integrin (human) (UniProt P06756); assay: cell-based or functional assay
[2] = target: human integrin β1 subunit (human) (UniProt P05556); assay: cell-based or functional assay

- percentage of reduction in HUVEC adhesion by the anti-αvβ3 blocking antibody (LM609) compared to non-blocked cells [1]: 72.4%
- percentage of reduction in HUVEC adhesion by the anti-β1 blocking antibody (P5D2) compared to non-blocked cells [2]: 73.8%
Substance: Human fibronectin (fibronectin-coated coverslips, BD Biosciences), P02751 32-2477 (ligand)
